## Yeast mating assay 2: variants of the scFv Ab-95

Values reported by Engelhart et al. 2022, doi:10.1038/s41597-022-01779-4 (FLAb copy).

Binding partner: SARS-CoV-2 spike HR2 peptide, sequence PDVDLGDISGINAS.

Each scFv is VH, the linker GGGGSGGGGSGGGGS, VL, as in the parent Ab-95, and differs from it in the CDRs of the light chain only.
VH: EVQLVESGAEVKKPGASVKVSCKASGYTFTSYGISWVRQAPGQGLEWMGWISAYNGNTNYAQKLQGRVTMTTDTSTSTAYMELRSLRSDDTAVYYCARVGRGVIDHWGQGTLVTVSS
VL: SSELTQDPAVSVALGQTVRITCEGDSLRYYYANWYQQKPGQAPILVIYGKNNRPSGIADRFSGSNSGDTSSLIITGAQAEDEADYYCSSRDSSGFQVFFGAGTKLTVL

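The parent was found by panning a naive human phage display library on the peptide. AAYL52 was designed without a model: most single CDR substitutions and a random sample of double and triple ones. AlphaSeq pools MATa yeast showing the antibodies with MATalpha yeast showing the peptide. Binding brings cells together so that they mate, and sequencing counts the barcode pairs among the diploids. Read counts were normalised to the haploid input and turned into Kd by a linear fit to BCL2-family pairs of known affinity, for each replicate. Each pool was mated in three replicate cultures.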

Substitutions are numbered in sequence along the VL above, starting at 1 (not Kabat). Every variant below is changed at R53 of the VL (sequential numbering). Kd is apparent (estimated from mating counts) and averaged on the log scale over replicates with a signal. Smaller is tighter. "nd" marks a missing value. The strain was present, yet no cells mated with the target were sequenced in any replicate, which points to weak or no binding. Empty control strains, which show no peptide, gave a signal in 28% of pairings with library AAYL52; the median was 8.2 µM and 95% of these signals were weaker than 800 nM. No background was subtracted. For each scFv, signals with the empty controls are counted beside the result. For reference, the parent read 200 nM as the reference entry and 180 nM as a member of this library.

With Y30M N33F R53M the result was 5.4 µM (1 of 3 replicates; controls 3 of 9). For Y30A R53S F95M, the assay gave 75 nM (3 of 3 replicates; controls 2 of 9). With Y30N R53G S89I the result was 86 nM (3 of 3 replicates; controls 3 of 9). For N52W R53F S89L, the assay gave nd (0 of 3 replicates; controls 1 of 9). With K50F R53F P54D the result was 6.8 µM (2 of 3 replicates; controls 1 of 9).

With R53H S88L S92Q the result was 2.0 µM (3 of 3 replicates; controls 3 of 9). The variant S26M Y31N R53G showed 2.5 µM (3 of 3 replicates; controls 2 of 9). With R53S the result was 460 nM (3 of 3 replicates; controls 2 of 9). The variant G24K R53G F95H showed nd (0 of 3 replicates; controls 5 of 9). With R28G R53W the result was 12 µM (1 of 3 replicates; controls 1 of 9).

For R53Y S88Q D91R, the assay gave nd (0 of 3 replicates; controls 3 of 9). For R53A, the assay gave 460 nM (3 of 3 replicates; controls 4 of 9). The variant R53W S92L showed nd (0 of 3 replicates; controls 2 of 9). With Y29S R53W R90G the result was 3.2 µM (1 of 3 replicates; controls 3 of 9). The variant R28H R53P S88F showed 13 µM (2 of 3 replicates; controls 3 of 9).

The variant R28Y R53P F95G gave 20 µM (3 of 3 replicates; controls 3 of 9). For G24S R53P, the assay gave 970 nM (2 of 3 replicates; controls 1 of 9). For E23S R53L S92V, the assay gave 1.0 µM (3 of 3 replicates; controls 3 of 9). With N51I R53W V97K the result was 15 µM (2 of 3 replicates; controls 3 of 9). For L27E R53K S55W, the assay gave 43 µM (2 of 3 replicates; controls 4 of 9).

The variant R53M S88K V97Y gave 6.8 µM (2 of 3 replicates; controls 5 of 9). With Y29E K50N R53V the result was 510 nM (3 of 3 replicates; controls 1 of 9). With G49D R53K D91W the result was nd (0 of 3 replicates; controls 5 of 9). With Y31R R53H S88K the result was 30 µM (3 of 3 replicates; controls 4 of 9). The variant R53T showed 300 nM (3 of 3 replicates; controls 4 of 9).

For E23Q Y30E R53T, the assay gave 13 nM (3 of 3 replicates; controls 4 of 9). For G24Y G49I R53S, the assay gave 16 µM (1 of 3 replicates; controls 4 of 9). With R28I R53M R90T the result was nd (0 of 3 replicates; controls 1 of 9). The variant G24L N52K R53M showed nd (0 of 3 replicates; controls 0 of 9). The variant Y30M Y31S R53W showed 3.0 µM (3 of 3 replicates; controls 4 of 9).

The variant N51F R53Y S92T gave nd (0 of 3 replicates; controls 1 of 9). The variant N51I R53H V97I showed 8.1 µM (2 of 3 replicates; controls 1 of 9). With D25Q R53S the result was 280 nM (3 of 3 replicates; controls 2 of 9). With G49S R53Q the result was 35 µM (2 of 3 replicates; controls 1 of 9). For E23F N51K R53A, the assay gave 230 µM (1 of 3 replicates; controls 3 of 9).

The variant E23A Y31C R53H showed 460 nM (3 of 3 replicates; controls 5 of 9). The variant R53P S55H S92A showed 33 µM (2 of 3 replicates; controls 5 of 9). The variant L27N R53L R90V gave nd (0 of 3 replicates; controls 3 of 9). The variant R53S P54Q S89W gave 3.2 µM (3 of 3 replicates; controls 6 of 9). The variant G24K N51W R53P gave 5.4 µM (3 of 3 replicates; controls 7 of 9).

For A32W R53K F98M, the assay gave 1.6 µM (2 of 3 replicates; controls 2 of 9). With R53F S93N G94W the result was 4.1 µM (1 of 3 replicates; controls 5 of 9). For Y31V N51P R53Y, the assay gave 4.6 µM (1 of 3 replicates; controls 5 of 9). For N33H R53N P54V, the assay gave nd (0 of 3 replicates; controls 1 of 9). With E23Q R53D Q96C the result was 710 nM (3 of 3 replicates; controls 4 of 9).

The variant K50F R53S F98G gave 4.6 µM (2 of 3 replicates; controls 3 of 9). For E23K N52C R53G, the assay gave 6.1 µM (2 of 3 replicates; controls 1 of 9). The variant Y30N R53K D91T showed 16 nM (3 of 3 replicates; controls 0 of 9). With D25P Y31A R53L the result was 56 nM (3 of 3 replicates; controls 2 of 9). For K50S R53T D91P, the assay gave nd (0 of 3 replicates; controls 3 of 9).

With R53C G94C the result was 8.8 µM (2 of 3 replicates; controls 6 of 9).

For reference, 5 entries of the list once more:

For Y29E K50N R53V, the assay gave 510 nM (3 of 3 replicates; controls 1 of 9).
For E23Q Y30E R53T, the assay gave 13 nM (3 of 3 replicates; controls 4 of 9).
For G49D R53K D91W, the assay gave nd (0 of 3 replicates; controls 5 of 9).
For Y30A R53S F95M, the assay gave 75 nM (3 of 3 replicates; controls 2 of 9).
For G24L N52K R53M, the assay gave nd (0 of 3 replicates; controls 0 of 9).